Patent US20210369724A1, “COMBINATION OF ATR KINASE INHIBITORS WITH 2,3-DIHYDROIMIDAZO[1,2-C]QUINAZOLINE COMPOUNDS” (Bayer Aktiengesellschaft, priority 2018, published 2021)
Read-outs that look alike come from different tables or passages of the source. Marks after values point to notes of the source that are not given here.

Experiments:
[1] = tested on: HCT 116; assay: Proliferation assay, mono and fixed-ratio combinations (Cell Titre-Glo, 96 h); assay type: cell-based; details: Homo sapiens, HCT-116, 96 h, read-out: IC50, mono
[2] = tested on: C4-2B; assay: Proliferation assay of prostate cancer cell lines with R1881 (Cell Titre-Glo, 144 h); assay type: cell-based; details: Homo sapiens, read-out: IC50, mono
[3] = tested on: MDA-MB-468; assay: Proliferation assay, mono and fixed-ratio combinations (Cell Titre-Glo, 96 h); assay type: cell-based; details: Homo sapiens, MDA-MB-468, 96 h, read-out: IC50, mono
[4] = tested on: IGR-OV1 endometrial cancer xenograft; details: mouse, in vivo, po, 20 mg/kg
[5] = tested on: Ri-1 B cell lymphoma xenograft; assay: Human Ri-1 B cell lymphoma xenograft model; details: mouse, in vivo
[6] = tested on: VCaP; assay: Proliferation assay of prostate cancer cell lines with R1881 (Cell Titre-Glo, 144 h); assay type: cell-based; details: Homo sapiens, read-out: IC50, mono
[7] = tested on: 22Rv1 prostate cancer xenograft; assay: Human 22Rv1 prostate cancer xenograft model; details: mouse, in vivo; for T/C: po
[8] = tested on: Ri-1 B cell lymphoma xenograft; details: mouse, in vivo, po, 20 mg/kg
[9] = tested on: 22Rv1 prostate cancer xenograft; details: mouse, in vivo, po
[10] = tested on: OVCAR-3; assay: 72-hour growth assay of ovary cancer cell lines (Cell Titre-Glo); assay type: cell-based; details: Homo sapiens, OVCAR-3, 72 h, read-out: IC50, mono [M]
[11] = tested on: SUM-149 breast cancer xenograft; details: mouse, in vivo, po, 20 mg/kg
[12] = tested on: IGR-OV1 endometrial cancer xenograft; assay: Human IGR-OV1 endometrial cancer xenograft model; details: mouse, in vivo, po, 20 mg/kg
[13] = tested on: IGR-OV1 cancer xenograft; assay: Human IGR-OV1 endometrial cancer xenograft model; details: mouse, in vivo
[14] = tested on: small cell lung cancer cell line NCI-H1048; assay: Full matrix combination, 72-hour proliferation assay (CellTiter-Glo); assay type: cell-based
Method: Percentage of control (DMSO) in tumor cell growth assay in vitro is used for the assessment of combination effects.
The efficacy parameters were the effects in a 72-hour assay. Tumor cells were cultured in 37° C. incubator in their respective growth medium and serum according to the protocol from providers. […] Cell viability was assessed after 72 hour exposure with the Cell Titre-Glo Luminescent Cell Viability Assay (Promega).

[15] = tested on: LNCaP; assay: Proliferation assay of prostate cancer cell lines with R1881 (Cell Titre-Glo, 144 h); assay type: cell-based; details: Homo sapiens, read-out: IC50, mono
[16] = tested on: SUM-149 breast cancer xenograft; assay: Human SUM-149 breast cancer xenograft model; details: mouse, in vivo
[17] = tested on: SUM-149; assay: Proliferation assay, mono and fixed-ratio combinations (Cell Titre-Glo, 96 h); assay type: cell-based; details: Homo sapiens, SUM149, 96 h, read-out: IC50, mono
[18] = tested on: NCI-H460; assay: Proliferation assay of cell lines treated with Compound A, Compound B and fixed-ratio combinations (Cell Titre-Glo, 96 h); assay type: cell-based; details: Homo sapiens, NCI-H460, 96 h, read-out: IC50, mono
[19] = tested on: A2780; assay: 72-hour growth assay of ovary cancer cell lines (Cell Titre-Glo); assay type: cell-based; details: Homo sapiens, A2780, 72 h, read-out: IC50, mono [M]
[20] = tested on: Huh-7; assay: Proliferation assay, mono and fixed-ratio combinations (Cell Titre-Glo, 96 h); assay type: cell-based; details: Homo sapiens, Huh-7, 96 h, read-out: IC50, mono
[21] = tested on: IGR-OV1; assay: as above; assay type: cell-based; details: Homo sapiens, IGROV-1, 96 h, read-out: IC50, mono
[22] = tested on: SNU-449; assay: as above; assay type: cell-based; details: Homo sapiens, SNU-449, 96 h, read-out: IC50, mono

C[C@@H]1COCCN1c1cc(-c2ccnn2C)c2ccnc(-c3ccn[nH]3)c2n1 [Compound B, 2-[(3R)-3-methylmorpholin-4-yl]-4-(1-methyl-1H-pyrazol-5-yl)-8-(1H-pyrazol-5-yl)-1,7-naphthyridine]
IC50 [1]: 0.2 µM
IC50 [2]: 0.035 µM
IC50 [3]: 0.19 µM
Max. weight loss (%) [4]: −6%
Anti-tumor efficacy of monotherapy compared to control [5]: good and statistically significant improved anti-tumor efficacy
T/C ([5]; po, 20 mg/kg): 0.32*
IC50 [6]: 0.016 µM
Anti-tumor efficacy of monotherapy compared to control [7]: weak to moderate and statistically significant improved anti-tumor efficacy
T/C ([7]; 10 mg/kg): 0.56*
T/C ([7]; 20 mg/kg): 0.31*
Max. weight loss (%) [8]: −8%
Max. weight loss (%) ([9]; 10 mg/kg): −2%
Max. weight loss (%) ([9]; 20 mg/kg): −6%
IC50 [10]: 1.65e-07 M
Max. weight loss (%) [11]: −4%
T/C [12]: 0.33*
Anti-tumor efficacy of monotherapy compared to control [13]: good to moderate and statistically significant improved anti-tumor efficacy
growth inhibition [14]: 61%
IC50 [15]: 0.015 µM
Anti-tumor efficacy of monotherapy compared to control [16]: weak to moderate and statistically significant improved anti-tumor efficacy
T/C ([16]; po, 20 mg/kg): 0.32*
IC50 [17]: 0.018 µM
IC50 [18]: 0.25 µM
IC50 [19]: 6.82e-08 M
IC50 [20]: 0.051 µM
IC50 [21]: 0.04 µM
IC50 [22]: 0.47 µM
